# Values of other authors as cited in patent US20240398651A1 (Neuro-Innovators, LLC., priority 2021, published 2024).
# Target: angiotensin II receptor type 1 (AT1) (Homo sapiens, UniProt P30556)
# Conditions: selectivity AT1 over AT2
smiles,measurement,value
CCCc1nc2c(C)cc(-c3nc4ccccc4n3C)cc2n1Cc1ccc(-c2ccccc2C(=O)O)cc1 [Telmisartan],binding affinity greater for AT1 than AT2,3000 times
